Reference: patent publication US6759384B1, “Factor Xa inhibitors” (Aventis Pharmaceuticals Inc., priority 1994, dated 2004)

Columns and labels:
Format in all cases: biochemical
human thrombin = biological target: T1, human thrombin (Homo sapiens, UniProt P00734); test: Thrombin chromogenic assay; conditions: Table 2
T1 construct: purchased Enzyme Research Laboratories, Inc; South Bend Ind
Procedure: (§1) The ability of a compound of the invention to inhibit factor Xa, thrombin, plasmin, elastase and trypsin was assessed by determining the concentration of YIR peptide that inhibits enzyme activity by 50% (IC50). Purified enzymes were used in chromogenic assays. To determine the inhibition constant, the IC50 value was corrected for competition with substrate using the formula:
(§2) Ki=IC50×(1/{1+((substrate concentration)/substrate Km)})
TBS-P buffer was used for this assay. The IC50 was determined as described in Example XXXVII.a., except that the substrate was S-2366 (L-PyroGlu-L-Pro-L-Arg-p-nitroanilide; Kabi) and the enzyme was human thrombin (Enzyme Research Laboratories, Inc.; South Bend Ind.). The enzyme concentration was 1 nM and substrate concentration was 175 μM.

human plasmin = biological target: T2, human plasmin (Homo sapiens, UniProt P00747); test: Plasmin chromogenic assay; conditions: Table 2
T2 construct: the enzyme was human plasmin (Kabi); purchased Kabi
Procedure: as §1, §2
TBS-P buffer was used for this assay. The IC50 was determined as described in Example XXXVII.a., except that the substrate was S-2251 ((D)-Val-L-Leu-L-Lys-p-nitroanilide; Kabi) and the enzyme was human plasmin (Kabi). The enzyme concentration was 5 nM and the substrate concentration was 300 uM.

[1] = biological target: T3, bovine pancreatic trypsin (Bos taurus, UniProt P00760); test: Trypsin chromogenic assay; conditions: Table 2; * no significant inhibition at the highest concentration tested
T3 construct: purchased Sigma Type XIII, TPCK treated; host or cells: bovine pancreas
T3 sequence (P00760 24-246): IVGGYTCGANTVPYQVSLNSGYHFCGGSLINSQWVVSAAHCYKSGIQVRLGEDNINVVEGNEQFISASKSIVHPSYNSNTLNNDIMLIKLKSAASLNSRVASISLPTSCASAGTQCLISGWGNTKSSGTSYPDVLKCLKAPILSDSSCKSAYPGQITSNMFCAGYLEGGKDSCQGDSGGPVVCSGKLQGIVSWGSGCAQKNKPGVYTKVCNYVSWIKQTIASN
Procedure: as §1, §2
TBS-P buffer containing 10 mM CaCl2 was used for this assay. The IC50 determination was determined as described in Example XXXVII.a., except that the substrate was BAPNA (Benzoyl-L-Arg-p-nitroanilide; Sigma Chemical Co.; St. Louis Mo.) and the enzyme was bovine pancreatic trypsin (Type XIII, TPCK treated; Sigma). The enzyme concentration was 50 nM and the substrate concentration was 300 μM.

[2] = biological target: T4, human neutrophil elastase (Homo sapiens, UniProt P08246); test: Elastase chromogenic assay; conditions: Table 2
T4 construct: purchased Athens Research and Technology, Inc; Athens Ga
T4 sequence (P08246 30-247 limits assumed): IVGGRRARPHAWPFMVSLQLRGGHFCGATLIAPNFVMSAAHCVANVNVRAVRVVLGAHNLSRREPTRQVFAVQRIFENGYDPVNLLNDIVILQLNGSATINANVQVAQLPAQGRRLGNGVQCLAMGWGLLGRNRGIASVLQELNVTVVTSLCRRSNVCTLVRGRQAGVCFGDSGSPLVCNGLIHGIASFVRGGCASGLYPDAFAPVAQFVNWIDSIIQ
Procedure: as §1, §2
Tris-Cl, pH 7.4, 300 mM NaCl, 2% (v/v) N-methyl-pyrrolidone, 0.01% (w/v) NaN3 buffer was used for this assay. The IC50 was determined as described in Example XXXVII.a., except that the substrate was succinyl-Ala-Ala-Ala-p-nitroanilide (Calbiochem-Nova Biochem Corp.; San Diego Calif.) and the enzyme was human neutrophil elastase (Athens Research and Technology, Inc.; Athens Ga.). The enzyme concentration was 75 nM and the substrate concentration was 600 μM.

CC[C@H](C)[C@H](NC(=O)[C@H](Cc1ccc(O)cc1)NC(C)=O)C(=O)N[C@@H](CCCNC(=N)N)C(=O)N[C@@H](CC(C)C)C(=O)N1CCC[C@H]1C(N)=O [Ac-Y-I-R-L-P, Ac-Tyr-Ile-Arg-Leu-Pro-NH2]
Ki (human thrombin): > 200 µM
Ki (human plasmin): > 200 µM
Ki [1]: > 200 µM
Ki [2]: > 100 µM
